Reference: patent US5246932A, “Heterocyclic compounds” (Imperial Chemical Industries PLC, priority 1991, dated 1993)

Sequences of proteins named here, by UniProt entry; tags and fusion partners are left off.
UniProt P47745, whole entry: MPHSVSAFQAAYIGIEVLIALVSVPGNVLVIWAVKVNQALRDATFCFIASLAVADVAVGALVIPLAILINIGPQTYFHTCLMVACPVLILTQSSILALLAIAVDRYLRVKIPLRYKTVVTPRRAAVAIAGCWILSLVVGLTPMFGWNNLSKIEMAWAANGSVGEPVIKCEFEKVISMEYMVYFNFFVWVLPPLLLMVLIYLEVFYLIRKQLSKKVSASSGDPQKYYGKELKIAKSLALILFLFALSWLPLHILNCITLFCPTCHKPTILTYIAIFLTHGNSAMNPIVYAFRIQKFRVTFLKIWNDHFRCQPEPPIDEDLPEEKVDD

Target: T1, adenosine receptor known as A1 (Cavia porcellus, UniProt P47745)
T1 construct: Atrial pairs are obtained from guinea-pigs (Dunkin Hartley strain); from tissue; host or cells: guinea-pig spontaneously beating atrial pairs (Dunkin Hartley)
Experiment: Guinea-pig Atrial Bradycardic Test
Assay type: biochemical
Conditions: antagonism of 2-chloroadenosine bradycardia in beating guinea-pig atrial pair; read-out: pA2 (converted)

Cn1c(=O)c2[nH]cnc2n(C)c1=O [1,3-dimethylxanthine]
Kb: ~10 µM
